In PubChem BioAssay AID602340 (Broad Institute, 2012):
Only a part is listed here, and it is no random draw. Calls of active or inactive are those of the source.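 The calls were made as follows: active = mean ATP rescue above about 67%, or every replicate alone reaching that limit (limit read from the data, passing the limit was not always enough); inconclusive = no clear call, values can overlap the other calls; inactive = mean under the limit and some replicate under it.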

assay: protection of differentiated C2C12 cells from simvastatin – single point, plate reader, primary screen (AID 602340); settings: C2C12 myotubes + simvastatin, ATP luminescence, 48 h; at 7.49 µM; active compounds read high; scaled: DMSO 0, geranylgeraniol control 100;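 also: myotubes were challenged with 10 µM simvastatin during compound exposure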

SMILES | rescue of ATP level
Cc1ccc(C(=O)OC2CN3CCC2CC3)cc1 (stereo not drawn) | inactive: 9.13%
CC1CCC(C(C)C)C(OP(=O)(Nc2ccccn2)c2ccccc2)C1 (stereo not drawn) | inactive: -5.71%
Cc1nn(-c2ccccc2)c2c1P(=O)(N1CCOCC1)N(C)C(c1ccccc1)=N2 (stereo not drawn) | inactive: 8.97%
CCCC1OP(=O)(Nc2ccccc2)OCC1CC (stereo not drawn) | inactive: -7.03%
O=C(/C=C/c1ccccc1)OC1CN2CCC1CC2 (stereo not drawn) | inactive: 2.49%
Cc1ccc(S(=O)(=O)N(CCCN)CCCc2c(C)nc(N)[nH]c2=O)cc1 | inactive: 0.116%
O=P1(Nc2ncccn2)COc2ccccc2OC1 | inactive: 0.103%
O=[As](O)(c1cccs1)c1cccs1 | inactive: 1.83%
NS(=O)(=O)c1cccc(NC(=O)COC(=O)C(O)(c2ccccc2)c2ccccc2)c1 | inactive: 2.86%
O=P1(Nc2ccc(Br)cn2)COc2ccccc2OC1 | inactive: -4.73%
CCOP(=O)(NC(=NC(C)c1ccccc1)NC(C)c1ccccc1)OCC (stereo not drawn) | inactive: 3.53%
CCC1=CC2Cc3nc4ccc(Cl)cc4c(N)c3C(C1)C2 (stereo not drawn) | inactive: -65.1%
O=P1(Nc2ccccn2)COc2ccccc2OC1 | inactive: 3.08%
CN(CCCl)Cc1cc(Cl)c(NC2=NCCN2)c(Cl)c1 | inactive: -0.382%
Clc1n[nH]nc1-c1nn[nH][15n]1 | inactive: 12.4%
O=P1(N(CCCl)CCCl)NCCC(C(F)(F)F)O1 (stereo not drawn) | inactive: -0.899%
CN(C(=O)Cc1ccc(Cl)c(Cl)c1)[C@@H]1CCCC[C@H]1N1CCCC1 | inactive: -1.74%
CC(C)/C=N\N=C(\N)N[N+](=O)[O-] | inactive: -0.908%
CS(=O)(=O)c1ccc(Cl)c(NC(=O)COC(=O)C(O)(c2ccccc2)c2ccccc2)c1 | inactive: 6.45%
Cc1cccc(OCC(=O)OC2CN3CCC2CC3)c1 (stereo not drawn) | inactive: 1.76%
O=[As](O)(c1cccc(O)c1)c1cccc(O)c1 | inactive: 5.38%
Nc1cccc2c([As](=O)(O)O)cccc12 | inactive: 63.2%
Cc1ccc(NCCc2c([N+](=O)[O-])cc([N+](=O)[O-])cc2[N+](=O)[O-])cc1 | inactive: -4.01%
CCCOP(=S)(Nc1nc(N)cc(=O)[nH]1)OCCC | inactive: -14.8%

SMILES | rescue of ATP level
O=P(Nc1nccs1)(c1ccccc1)c1nc2ccccc2s1 (stereo not drawn) | inactive: -21.2%
CCOP1(=S)c2c(C)nn(CCC#N)c2N=C(c2ccccc2F)N1C (stereo not drawn) | inactive: -17.9%
CS(=O)(=O)c1cc([N+](=O)[O-])c2no[n+]([O-])c2c1 | inactive: -4%
O=C(O)COc1ccc([As](=O)(O)O)cc1[N+](=O)[O-] | inactive: 4.46%
Nc1ccccc1[As](=O)(O)c1ccccc1 | inactive: 0.571%
NC(=O)Nc1ccc([As](=O)(O)O)cc1 | inactive: 6.14%
CN(C(=O)Cc1ccccc1)[C@@H]1CC[C@]2(CCCO2)C[C@H]1N1CCCC1 | inactive: 10.9%
CCOP1(=S)c2c(C)nn(CCC#N)c2N=C(c2ccc(F)cc2)N1C (stereo not drawn) | inactive: -6.73%
N#CCCN(C(=O)COC(=O)C(O)(c1ccccc1)c1ccccc1)c1ccc(F)cc1 | inactive: 11.7%
CN(C(=O)Cc1ccc(Cl)c(Cl)c1)[C@H]1CC[C@@]2(CCCO2)C[C@@H]1N1CCCC1 | inactive: -1.71%
O=[N+]([O-])c1ccc2c(c1)nnn2O | inactive: -3.87%
O=[N+]([O-])c1ccc(-c2cc([N+](=O)[O-])c(O)c([N+](=O)[O-])c2)cc1 | inactive: -0.983%
COc1cc(C(=O)NCC2(N3CCOCC3)CCCCC2)ccc1OCC(C)C | inactive: -10.8%
C[As](=O)(O)c1cccc(C(=O)O)c1 | inactive: 7.87%
Cc1ccc(OP(=O)(Nc2ccc([N+](=O)[O-])cn2)Oc2ccc(C)cc2)cc1 | inactive: 3.33%
ClCCSc1nnc(-c2cccnc2)o1 | inactive: 7.56%
CC(C)c1ccc(OP(=O)(Nc2ccccn2)Oc2ccccc2F)cc1 (stereo not drawn) | inactive: 4.63%
O=C(OC1CN2CCC1CC2)c1cccc2[nH]cnc12 (stereo not drawn) | inactive: -3.61%
CCN(CC)C(=S)SC(NC=O)C(Cl)(Cl)Cl (stereo not drawn) | inactive: -7.06%
Cc1cc(=O)[nH]c(N[N+](=O)[O-])n1 | inactive: -0.768%
O=C(OC1CN2CCC1CC2)C12CC3CC(CC(C3)C1)C2 (stereo not drawn) | inactive: -13.3%
O=P1(N(CCCl)CCCl)Nc2ccccc2N1 | inactive: -1.21%
COc1cc(I)ccc1[As](=O)(O)O | inactive: -5.48%
O=[N+]([O-])c1cc(Oc2ccc([N+](=O)[O-])cc2C(F)(F)F)cc([N+](=O)[O-])c1 | inactive: -4.49%

SMILES | rescue of ATP level
COc1ccc(N/C(=N/P(=O)(N2CCOCC2)N2CCOCC2)N2CCOCC2)cc1 | inactive: 18.1%
COP1(=S)c2c(C)nn(CCC#N)c2N=C(c2ccc(F)cc2)N1C (stereo not drawn) | inactive: -12.1%
O=C(O)C(=O)c1ccc(N(CCCl)CCCl)cc1 | inactive: 11.7%
O=C(Nc1ccncc1[N+](=O)[O-])c1ccc([N+](=O)[O-])cc1[N+](=O)[O-] | inactive: 16.6%
O=C(COc1ccccc1)OC1CN2CCC1CC2 (stereo not drawn) | inactive: -1.43%
CSc1ccc(Nc2c([N+](=O)[O-])cc([N+](=O)[O-])cc2[N+](=O)[O-])cc1 | inactive: 0.872%
O=C(OC1CN2CCC1CC2)c1cccc([N+](=O)[O-])c1 (stereo not drawn) | inactive: -3.91%
O=C(O)C(O)c1ccc(N(CCCl)CCCl)cc1 (stereo not drawn) | inactive: 9.58%
CCOC(=O)Nc1ccc([As](=O)(O)O)c(O)c1 | inactive: -12.9%
CC1CCNP(=O)(N(CCCl)CCCl)O1 (stereo not drawn) | inactive: 6.43%
COP(=O)(OC)N1CC1c1ccccc1 (stereo not drawn) | inactive: -0.019%
CCCCOc1ccc(C(=O)NCC2(N3CCCCC3)CCCCC2)cc1OC | inactive: 4.62%
CCOC(=O)Nc1cccc([As](=O)(O)O)c1 | inactive: -6.59%
O=[N+]([O-])c1ccc(Nc2ccc(Oc3ccc([N+](=O)[O-])cc3[N+](=O)[O-])cc2)c([N+](=O)[O-])c1 | inactive: -1.02%
O=P1(N(CCCl)CCCl)OCCCS1 (stereo not drawn) | inactive: -2.31%
O=C(Nc1cc([As](=O)(O)O)ccc1O)c1ccccc1 | inactive: -9.7%
CC(C)(C)C(=O)NC(Sc1ccncn1)C(Cl)(Cl)Cl (stereo not drawn) | inactive: -2.09%
O=C(O)CNc1ccc([As](=O)(O)O)cc1 | inactive: -2.25%
O=[N+]([O-])c1cccc(NC2=NCC(CBr)S2)c1 (stereo not drawn) | inactive: 4.31%
COc1ccc(C2=NCC(CBr)S2)cc1 (stereo not drawn) | inactive: 4.85%
CCc1nc2c(n1)c1c(non1O)c1c2no[n+]1[O-] | inactive: -2.46%
CC(=O)N1C2C3N(C(C)=O)C1C1N(C(C)=O)C(C(N1C(C)=O)N3C(C)=O)N2C(C)=O | inactive: -12.8%
O=[N+]([O-])c1cccc2n[nH]nc12 | inactive: -11.3%
Nc1ccc([As](=O)(O)c2ccc(N)cc2)cc1 | inactive: -0.884%

SMILES | rescue of ATP level
CC1CCN(C(=O)Oc2c(Cl)cc(Cl)c3cccnc23)CC1 | inactive: 5.56%
c1cc(-c2nn[nH]n2)ccc1-c1nn[nH]n1 | inactive: -6.03%
CC(C)c1nc(Nc2ccccc2)n(P(=O)(N(C)C)N(C)C)n1 | inactive: 1.16%
Cc1ccc(N/C(=N/P(=O)(N2CCOCC2)N2CCOCC2)N2CCOCC2)cc1 | inactive: 0.709%
CN(C(=O)Cc1ccc(Cl)c(Cl)c1)[C@H]1CCCC[C@H]1N1CCCC1 | inactive: -2.62%
CN1CCCC(OC(=O)C(c2ccccc2)c2ccccc2)C1 (stereo not drawn) | inactive: 9.18%
Clc1ccc(Cl)c(NC2=NCC(CBr)S2)c1 (stereo not drawn) | inactive: -5.49%
Cc1ccc(OP(=O)(Nc2nccs2)Oc2ccc(C)cc2)cc1 | inactive: 20.4%
Oc1ccccc1CNc1ccccn1 | inactive: 0.0705%
CC(C)CC(=O)NC(Sc1ccc(Cl)cc1)C(Cl)(Cl)Cl (stereo not drawn) | inactive: -16.7%
O=P(Nc1nc2ccc(Cl)cc2s1)(c1ccccc1)c1ccccc1 | inactive: 15.8%
CN(C)P(=O)(N(C)C)n1c(Nc2ccccc2)nnc1-c1ccccc1 | inactive: -0.201%
CCCC1OP(N)(=O)OCC1CC (stereo not drawn) | inactive: 3.97%
CC(=O)Nc1ccc([As](=O)(O)O)cc1 | inactive: -3.83%
O=C(O)c1ccccc1[As](=O)(O)O | inactive: 0.361%
CN(C(=O)Cc1ccc(Cl)c(Cl)c1)[C@H]1CCCC[C@@H]1N1CCCC1 | inactive: -5.46%
Cc1ccc(NP(=O)(Oc2ccccc2F)Oc2ccccc2F)nc1 | inactive: -9.75%
CCOP(=O)(Nc1ccccc1)OCC | inactive: 3.56%
Nc1cccc2ccc([As](=O)(O)O)cc12 | inactive: -0.16%
CCNC(=S)/N=C(\N)N[N+](=O)[O-] | inactive: -13.4%
O=P1(N(CCCl)CCCl)OCCC2CCCCN21 (stereo not drawn) | inactive: -1.03%
CCC(=O)N1C2C3N(C(=O)CC)C1C1N(C(=O)CC)C(C(N1C(=O)CC)N3C(=O)CC)N2C(=O)CC | inactive: -3.78%
O=C(OC1CN2CCC1CC2)c1ccccc1 (stereo not drawn) | inactive: 11.8%
COC(=O)c1cc2c(s1)N=C(c1ccccc1)N(C)P2(=O)N1CCOCC1 (stereo not drawn) | inactive: 3.51%

SMILES | rescue of ATP level
CC(NC(=O)COC(=O)C(O)(c1ccccc1)c1ccccc1)c1ccccc1 (stereo not drawn) | inactive: 8.98%
O=P1(Nc2nc3ccc(Cl)cc3s2)COc2ccccc2O1 (stereo not drawn) | inactive: 8.46%
CCc1cc(O)c([N+](=O)[O-])c(C)c1[N+](=O)[O-] | inactive: 8.9%
C[C@H]1OP(=O)(Oc2ccccc2)C[C@@H]2O[C@@H]21 (stereo partly drawn) | inactive: -6.86%
C[C@@H]1C=CCP(=O)(Oc2ccccc2)O1 (stereo partly drawn) | inactive: -2.74%
Cc1ccccc1CN(C)C(=O)COC(=O)C(O)(c1ccccc1)c1ccccc1 | inactive: -1.14%
CC(=O)c1ccc(N2CC2c2ccncc2)cc1 (stereo not drawn) | inactive: 2.01%
CC(=O)Nc1ccc(Oc2c([N+](=O)[O-])cc([N+](=O)[O-])cc2[N+](=O)[O-])cc1 | inactive: -1.4%
CC(=O)Nc1ccc([As](=O)(O)O)c(O)c1 | inactive: 11.1%
O=P(Nc1nccs1)(c1ccccc1)c1ccccc1 | inactive: 2.42%
c1nnnn1CCn1cnnn1 | inactive: -15.9%
CN(C)C1(CNC(=O)c2ccc(Cl)c(S(N)(=O)=O)c2)CCCCC1 | inactive: 2.68%
O=P(Nc1ccccn1)(c1ccc(Br)cc1)c1ccc(Br)cc1 | inactive: 7.33%
COc1ccc(N)c([N+](=O)[O-])c1[N+](=O)[O-] | inactive: -7.37%
Nc1ccc(CCCCOc2ccccc2)cc1 | inactive: 19.3%
C[C@H]1OP(=O)(Oc2ccccc2)[C@H](O)[C@H](O)[C@H]1N=[N+]=[N-] (stereo partly drawn) | inactive: -0.0735%
O=P(Nc1nc2ccccc2s1)(c1ccccc1)c1ccccc1 | inactive: 28.8%
O=[As](O)(c1ccccc1)c1ccc(O)cc1 | inactive: 6.82%
O=[N+]([O-])c1ncn(CCn2cnc([N+](=O)[O-])n2)n1 | inactive: 2.8%
O=[N+]([O-])c1ccc(O)c(/C=N/Nc2ccc([N+](=O)[O-])cc2[N+](=O)[O-])c1 | inactive: -86.5%
O=C(OC1CN2CCC1CC2)c1cccc(Cl)c1 (stereo not drawn) | inactive: -11.9%
Nc1ccc([As](=O)(O)c2ccc([N+](=O)[O-])cc2)cc1 | inactive: 3.71%
